Measured values: the DeepSol protein solubility set

Test: soluble on expression in E. coli; label from the status in PepcDB or PDB records

Row | Sequence | soluble on expression in E. coli
1 | MSLSHGKGTDMLPEIAAAVGFLSSLLRTRGCVSEQRLKVFSGALQEALTEHYKHHWFPEKPSKGSGYRCIRINHKMDPIISRVASQIGLSQPQLHQLLPSELTLWVDPYEVSYRIGEDGSICVLYEEAPLAASCGLLTCKNQVLLGRSSPSKNYVMAVSSEGHHHHHH | not soluble
2 | MASRGVNKVILVGNLGQDPEVRYMPNGGAVANITLATSESWRDKATGEMKEQTEWHRVVLFGKLAEVASEYLRKGSQVYIEGQLRTRKWTDQSGQDRYTTEVVVNVGGTMQMLGGRQGGGAPAGGNIGGGQPQGGWGQPQQPQGGNQFSGGAQSRPQQSAPAAPSNEPPMDFDDDIPF | soluble
